In this test the test system is HER2 expressing SK-OV-3-Luc ovarian xenograft. The test is described as follows: efficacy in SK-OV-3-Luc ovarian xenograft subcutaneous model. It is filed as in vivo, mice. How it is done:
This study was performed to evaluate the efficacy of ADC constructs against HER2 expressing SK-OV-3-Luc ovarian xenograft subcutaneous model using both bioluminescent imaging and traditional tumor caliper measurement. Sixty-five female athymic nudes, 4 weeks old of age were obtained from Charles River. SK-OV-3-Luc cells were expanded using standard tissue culture technique. On the day of implantation, 2.5×10^6 cells in incomplete media with 30% matrigel were implanted to the right lower flank of each mouse. Animals were stratified into 7 groups of 8 mice for treatment based on the total flux (Perkin Elmer IVIS Lumina XRMS II) at day 10 pi. Animals were weighed twice weekly in conjunction with tumor measurements. Bioluminescent Imaging were performed once a week. Tumor mass were calculated using the following formula: Mass (mg)=Tumor volume (mm^3)=d^2×D/2, where d and D are the shortest and longest diameter in mm, respectively.
Animals were treated according to the following table (BIW: twice a week; QW: once a week, DM1: Mertansine, MMAD: Monomethyl auristatin D, ADC: antibody-drug conjugate): […]

Take “Kadcyla: trastuzumab conjugated to maytansinoid toxin; anti-Her2 ADC”: the tumor response entry (3 mg/kg ip BIW) was “showed efficacy”.

Turning to Trastuzumab: anti-HER-2 antibody, the “tumor response compared to the vehicle group” value (9 mg/kg ip BIW, day 66 pi) was “complete regression”.

The record behind these values is US11459397B2, “Self-crosslinking antibodies” (Meditope Biosciences, Inc., priority 2016, dated 2022).
